Consider 21 compounds from US20060079453A1, “Hla binding peptides and their uses” (priority 2002, published 2006).

In general, IC50 refers to the concentration that gives 50% inhibition. High values mean weaker potency, low ones greater potency.

Read-outs that look alike come from different tables or passages of the source.

Common to all, as to test: biochemical
Holding throughout (type): binding

The target of test [1] is HLA-B*4001 (Homo sapiens, UniProt P01889, A65T/A93T/A95T/D138N/D98Y/E176V/E69K/N87E/Q56L/Q94N/R180L/S121R/S35A/S48T/T167S/V36M/W171L/Y33H/Y91S). To be noted: B*4001.
The target of test [2] is HLA-B*4402 (Homo sapiens, UniProt P01889, A223V/A65T/A93T/A95T/D201E/D98Y/E176V/E187L/E204Q/E69K/G107R/H137Y/K202T/L105A/L119I/N104T/N87E/Q56L/Q94N/R106L/R155S/R180D/S101N/S121R/S35A/S48T/T118I/V36M/W191S/Y140D/Y91S). To be noted: B*4402.
The target of test [3] is HLA-B*4403 (Homo sapiens, UniProt P01889, A223V/A65T/A93T/A95T/D201E/D98Y/E176V/E187L/E204Q/E69K/G107R/H137Y/K202T/L105A/L119I/N104T/N87E/Q56L/Q94N/R106L/R155S/R180L/S101N/S121R/S35A/S48T/T118I/V36M/W191S/Y140D/Y91S).
Test [4] has as its target HLA-B*4002 (Homo sapiens, UniProt P01889, A65T/A93T/A95T/D138N/D201E/D98Y/E176V/E204Q/E69K/K202T/N87E/Q56L/Q94N/R180L/S48T/Y33H/Y91S). Conditions: B*4002.
Test [5] addresses HLA-B*4501 (Homo sapiens, UniProt P01889, A329T/A65T/A93T/A95T/C349S/D138N/D201E/D98Y/E176V/E187L/E204Q/E69K/H137Y/K202T/L119W/N87E/Q56L/Q94N/R155S/R180D/S121R/S35A/S48T/V127L/V306I/V36M/W191S/Y140L/Y33H/Y91S). To be noted: B*4501.
For test [6], the target named is HLA-B*1801 (Homo sapiens, UniProt P01889, A329T/A93T/A95T/C349S/D201E/D54G/D98Y/E176V/E187T/E204Q/E69T/K202T/Q94N/R155S/R180L/S121R/V306I/Y140S/Y195H/Y33H/Y91S). To be noted: B*1801.

Take `CC(C)C[C@H](NC(=O)[C@H](Cc1ccc(O)cc1)NC(=O)[C@H](CCC(=O)O)NC(=O)[C@H](CCC(=O)O)NC(=O)[C@H](C)N)C(=O)N[C@H](C(=O)N1CCC[C@H]1C(=O)N[C@@H](CCC(N)=O)C(=O)N[C@@H](CCC(N)=O)C(=O)NCC(=O)N[C@@H](Cc1ccccc1)C(=O)N[C@@H](Cc1ccccc1)C(=O)O)C(C)C`: the IC50 in test [1] was determined as 0.228 µM; in test [2], 0.016 µM; in test [3] (B*4403) it was 0.013 µM; in test [4] it was 0.045 µM.
With `CC(C)C[C@H](NC(=O)[C@H](CC(C)C)NC(=O)[C@H](CC(C)C)NC(=O)[C@@H](NC(=O)[C@H](CCC(=O)O)NC(=O)[C@H](CCCCN)NC(=O)CNC(=O)[C@H](CCC(=O)O)NC(=O)[C@H](C)N)C(C)C)C(=O)O`, the IC50 in test [1] is 0.072 µM; in test [3] (B*4403), 0.0017 µM; in test [5] it was 0.199 µM.
Compound `CC(C)C[C@H](NC(=O)[C@H](CC(N)=O)NC(=O)[C@H](CCC(=O)O)NC(=O)[C@H](C)N)C(=O)N[C@@H](Cc1c[nH]c2ccccc12)C(=O)N[C@H](C(=O)N[C@@H](CO)C(=O)N[C@H](C(=O)N[C@@H](Cc1ccc(O)cc1)C(=O)O)C(C)C)C(C)C` displayed an IC50 in test [3] of 0.178 µM.
`C[C@H](NC(=O)[C@H](CCC(=O)O)NC(=O)[C@@H]1CCCN1C(=O)[C@H](CCC(=O)O)NC(=O)[C@@H](N)CS)C(=O)N[C@@H](CCC(N)=O)C(=O)N[C@@H](CC(N)=O)C(=O)N[C@H](C(=O)N[C@H](C(=O)N[C@@H](Cc1ccc(O)cc1)C(=O)O)[C@@H](C)O)[C@@H](C)O`: the half-maximal inhibitory concentration (IC50) in test [1] was > 12.9 µM; in test [3] (B*4403) it was > 4.27 µM; in test [4] it was > 48.6 µM.
Take `CSCC[C@H](NC(=O)[C@@H](NC(=O)[C@H](Cc1ccc(O)cc1)NC(=O)[C@H](C)NC(=O)[C@H](CCC(=O)O)NC(=O)[C@@H](N)CC(=O)O)C(C)C)C(=O)N[C@@H](C)C(=O)NCC(=O)N[C@H](C(=O)NCC(=O)O)C(C)C`: it took 4.1 µM to reach half-maximal inhibition in test [3] (B*4403) (IC50).
In turn, `CC(C)C[C@H](NC(=O)CNC(=O)[C@H](CCC(=O)O)NC(=O)[C@@H](N)CCC(=O)O)C(=O)N[C@@H](CCC(=O)O)C(=O)N[C@@H](C)C(=O)N[C@@H](CCCNC(=N)N)C(=O)NCC(=O)N[C@@H](CCC(=O)O)C(=O)N[C@@H](C)C(=O)O` showed an IC50 in test [3] (B*4403) of 0.302 µM.
For `CC[C@H](C)[C@H](NC(=O)[C@H](CCCCN)NC(=O)[C@H](CCC(=O)O)NC(=O)[C@@H](N)CCC(=O)O)C(=O)N[C@@H](Cc1c[nH]c2ccccc12)C(=O)N[C@@H](CCC(=O)O)C(=O)N[C@@H](CCC(=O)O)C(=O)N[C@@H](CC(C)C)C(=O)N[C@@H](CO)C(=O)N[C@@H](CCSC)C(=O)O`, the IC50 came out at 21.4 µM in test [1], 0.017 µM in test [6] and 0.019 µM in test [3] (B*4403).
On to `CSCC[C@H](NC(=O)[C@H](CO)NC(=O)[C@H](CCC(=O)O)NC(=O)[C@@H](N)Cc1ccccc1)C(=O)N1CCC[C@H]1C(=O)N[C@@H](CC(N)=O)C(=O)N1CCC[C@H]1C(=O)N[C@@H](CCC(=O)O)C(=O)NCC(=O)O`, for which the results for the IC50 in test [1], in test [2] and in test [3] (B*4403) were 30.2 µM, 16.5 µM and 0.014 µM, respectively.
`CC[C@H](C)[C@H](NC(=O)[C@H](CCCCN)NC(=O)[C@@H](NC(=O)[C@H](CC(N)=O)NC(=O)[C@H](CCC(=O)O)NC(=O)CN)C(C)C)C(=O)N1CCC[C@H]1C(=O)N[C@H](C(=O)N[C@@H](C)C(=O)O)C(C)C`: the IC50 in test [1] stood at 14.5 µM; in test [2] it was 20.3 µM; in test [3] (B*4403), 0.0027 µM; in test [5], 0.007 µM; in test [4], 0.0075 µM.
In the case of `CC[C@H](C)[C@H](NC(=O)[C@H](C)NC(=O)[C@@H](NC(=O)[C@@H]1CCCN1C(=O)[C@@H](NC(=O)[C@H](CCCCN)NC(=O)[C@@H](NC(=O)[C@H](CC(N)=O)NC(=O)[C@H](CCC(=O)O)NC(=O)CN)C(C)C)[C@@H](C)CC)C(C)C)C(=O)O`, the IC50 in test [3] (B*4403) was determined as 0.0067 µM; in test [4], 0.028 µM.
Take `CC[C@H](C)[C@H](N)C(=O)N[C@@H](CCC(=O)O)C(=O)N[C@@H](CC(C)C)C(=O)N[C@@H](CCSC)C(=O)N[C@@H](CCC(=O)O)C(=O)N[C@H](C(=O)N[C@@H](CC(=O)O)C(=O)N1CCC[C@H]1C(=O)N[C@H](C(=O)NCC(=O)O)[C@@H](C)CC)C(C)C`: the figures for the half-inhibitory concentration (IC50) in test [6] and in test [3] (B*4403) were 0.194 µM and > 16.3 µM, respectively.
On to `CC[C@H](C)[C@H](NC(=O)[C@H](CCC(=O)O)NC(=O)[C@@H](N)CCCCN)C(=O)N[C@@H](CC(C)C)C(=O)N[C@@H](CC(=O)O)C(=O)N[C@@H](CCC(=O)O)C(=O)N[C@@H](C)C(=O)N[C@@H](Cc1ccc(O)cc1)C(=O)N[C@H](C(=O)N[C@@H](CCSC)C(=O)O)C(C)C`, for which the IC50 in test [1] came to 0.01 µM; in test [6], 0.00014 µM; in test [3] (B*4403), 0.0075 µM.
In test [3] (B*4403), `CC(C)C[C@H](NC(=O)[C@H](CCC(=O)O)NC(=O)[C@@H](NC(=O)[C@H](CCC(=O)O)NC(=O)[C@@H](N)CCCCN)[C@@H](C)O)C(=O)N[C@@H](CCCNC(=N)N)C(=O)N[C@@H](CCCCN)C(=O)N[C@H](C(=O)N[C@@H](CCCCN)C(=O)N[C@H](C(=O)O)C(C)C)C(C)C` came in with a 50% inhibitory concentration (IC50) of 0.0045 µM.
Regarding `CC[C@H](C)[C@H](NC(=O)[C@H](C)NC(=O)[C@H](C)NC(=O)[C@H](CCC(N)=O)NC(=O)[C@H](Cc1ccccc1)NC(=O)[C@H](CCC(=O)O)NC(=O)[C@H](CO)NC(=O)[C@H](CCC(=O)O)NC(=O)[C@@H](N)CC(C)C)C(=O)N[C@@H](CO)C(=O)N[C@@H](CCCNC(=N)N)C(=O)N[C@@H](CCCCN)C(=O)N[C@@H](CCSC)C(=O)O`, the IC50 in test [1] is 0.31 µM; in test [6], 0.049 µM; in test [5], 0.022 µM; in test [4], 0.072 µM.
In the case of `CC[C@H](C)[C@H](NC(=O)[C@H](CO)NC(=O)[C@H](CCC(=O)O)NC(=O)[C@@H](N)CC(C)C)C(=O)N[C@@H](CC(C)C)C(=O)N[C@@H](CCCNC(=N)N)C(=O)N[C@@H](CCCNC(=N)N)C(=O)N[C@@H](CCCNC(=N)N)C(=O)N[C@@H](Cc1ccccc1)C(=O)N[C@H](C(=O)O)[C@@H](C)O`, the half-inhibitory concentration (IC50) worked out at 28.5 µM in test [1] and 0.087 µM in test [3] (B*4403).
Consider `CC(C)C[C@H](NC(=O)[C@@H](NC(=O)[C@H](CO)NC(=O)[C@H](CCC(=O)O)NC(=O)[C@@H](N)CC(C)C)C(C)C)C(=O)N[C@@H](CCCNC(=N)N)C(=O)N[C@@H](CC(N)=O)C(=O)N[C@@H](CS)C(=O)N[C@@H](CCC(N)=O)C(=O)N[C@@H](CC(=O)O)C(=O)N[C@@H](Cc1ccccc1)C(=O)N[C@@H](Cc1ccccc1)C(=O)O`, for which the IC50 is 0.055 µM in test [1], 0.184 µM in test [2], 0.024 µM in test [3] (B*4403) and 1.99 µM in test [5].
For `CC(C)C[C@H](NC(=O)[C@H](Cc1ccc(O)cc1)NC(=O)[C@@H](NC(=O)[C@@H](NC(=O)[C@H](CC(N)=O)NC(=O)[C@H](CCC(N)=O)NC(=O)[C@H](C)NC(=O)[C@H](CCC(=O)O)NC(=O)[C@@H]1CCCN1)[C@@H](C)O)[C@@H](C)O)C(=O)N[C@@H](Cc1c[nH]c2ccccc12)C(=O)O`, the IC50 in test [1] was > 9.25 µM; in test [3] (B*4403), 21.2 µM; in test [5], > 28.7 µM; in test [4], > 12.6 µM.
With `CC(C)C[C@H](NC(=O)[C@H](Cc1ccc(O)cc1)NC(=O)[C@@H](NC(=O)[C@@H](NC(=O)[C@H](CC(N)=O)NC(=O)[C@H](CCC(N)=O)NC(=O)[C@H](C)NC(=O)[C@H](CCC(=O)O)NC(=O)[C@@H]1CCCN1)[C@@H](C)O)[C@@H](C)O)C(=O)N[C@@H](Cc1c[nH]c2ccccc12)C(=O)N[C@@H](Cc1c[nH]c2ccccc12)C(=O)N[C@H](C(=O)O)C(C)C`, the IC50 worked out at 1.69 µM in test [1], 0.0051 µM in test [2], 0.0033 µM in test [3] (B*4403) and 0.646 µM in test [4].
With `CSCC[C@H](NC(=O)[C@H](CCC(=O)O)NC(=O)[C@H](C)NC(=O)[C@H](CCCCN)NC(=O)[C@@H](NC(=O)[C@@H](NC(=O)[C@@H]1CCCN1C(=O)[C@H](CCC(=O)O)NC(=O)[C@@H](N)CCCNC(=N)N)C(C)C)[C@@H](C)O)C(=O)N[C@@H](CC(C)C)C(=O)O`, the IC50 in test [2] turned out to be 0.084 µM; in test [3] (B*4403), 0.041 µM.
For `CC(C)C[C@H](NC(=O)[C@H](CC(N)=O)NC(=O)[C@H](CCC(=O)O)NC(=O)[C@@H](N)C(C)C)C(=O)N[C@@H](Cc1c[nH]c2ccccc12)C(=O)N[C@H](C(=O)N[C@H](C(=O)N[C@H](C(=O)N[C@@H](Cc1ccc(O)cc1)C(=O)O)C(C)C)[C@@H](C)O)C(C)C`, half-maximal inhibition in test [3] (IC50) required 4.86 µM.
With `CSCC[C@H](NC(=O)[C@H](CO)NC(=O)[C@H](CC(C)C)NC(=O)[C@H](CCC(=O)O)NC(=O)[C@H](CCC(=O)O)NC(=O)[C@@H](N)Cc1c[nH]c2ccccc12)C(=O)N[C@@H](CC(C)C)C(=O)O` [WEELSML], the IC50 in test [2] was > 28.5 µM; in test [3] (B*4403) it was 0.151 µM; in test [5], 82 µM.
